Source: patent publication US20250075003A1 (UIF UNIVERSITY INDUSTRY FOUNDATION YONSEI UNIVERSITY, published 2025)

Target: T1, Human VEGF (human, UniProt P15692-4 27-191, limits assumed)
T1 construct: Immobilised on a CM5 chip for SPR and coated on plates for ELISA (Abcam); also called hVEGF; hVEGF protein (Abcam)
T1 sequence (looked up): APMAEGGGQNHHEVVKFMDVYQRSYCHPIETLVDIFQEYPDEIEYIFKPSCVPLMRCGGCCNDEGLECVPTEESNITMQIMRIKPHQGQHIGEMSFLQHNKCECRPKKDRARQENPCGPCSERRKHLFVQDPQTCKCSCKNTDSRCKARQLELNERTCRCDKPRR
Experiment: Indirect ELISA. The target is not named in the legend and is taken as hVEGF from the ELISA section of Example 1-1.

B1: HFL (other)
chain: SSQIRQNYSTDVEAAVNSLVNLYLQASYTYLSLGFYFDRDDVALEGVSHFFRELAEEKREGYERLLKMQNQRGGRALFQDIKKPAEDEWGKTPDAMKAAMALEKKLNQALLDLHALGSARTDPHLCDFLETHFLDEEVKLIKKMGDHLTNLHRLGGPEAGLGEYLFERLTLKHD
notes: Ferritin control without scFv; also called hRID-HFL (HFL); not shown: limits and W or 9m version not visible), and any linker, cleavage site or tag between hRID and HFL
- binding result: no binding
